Data on two molecules can be found in ChEMBL document CHEMBL5653621, “Freezing the Bioactive Conformation to Boost Potency: The Identification of BAY 85-8501, a Selective and Potent Inhibitor of Human Neutrophil Elastase for Pulmonary Diseases” (ChemMedChem, 2015).

Chains of the proteins cited; added tags and fusions are not shown. Residues count along the entry.
UniProt P00742, 41-179 limits assumed: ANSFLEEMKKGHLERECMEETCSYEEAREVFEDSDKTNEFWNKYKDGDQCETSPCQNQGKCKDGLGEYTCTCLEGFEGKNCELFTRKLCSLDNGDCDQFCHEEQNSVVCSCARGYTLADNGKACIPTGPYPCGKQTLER
UniProt P00742, 235-488 limits assumed: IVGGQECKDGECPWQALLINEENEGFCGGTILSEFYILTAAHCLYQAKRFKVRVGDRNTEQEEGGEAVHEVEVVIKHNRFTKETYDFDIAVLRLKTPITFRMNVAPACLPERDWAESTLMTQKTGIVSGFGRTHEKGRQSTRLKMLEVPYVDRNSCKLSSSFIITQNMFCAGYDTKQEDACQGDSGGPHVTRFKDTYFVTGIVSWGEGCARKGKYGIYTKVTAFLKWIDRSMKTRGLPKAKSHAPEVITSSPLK

Molecules are shown by their SMILES. Some results are limits rather than exact numbers.

The target of assay [1] is T1, Neutrophil elastase (Homo sapiens, UniProt P08246).
T1 sequence (P08246 whole entry): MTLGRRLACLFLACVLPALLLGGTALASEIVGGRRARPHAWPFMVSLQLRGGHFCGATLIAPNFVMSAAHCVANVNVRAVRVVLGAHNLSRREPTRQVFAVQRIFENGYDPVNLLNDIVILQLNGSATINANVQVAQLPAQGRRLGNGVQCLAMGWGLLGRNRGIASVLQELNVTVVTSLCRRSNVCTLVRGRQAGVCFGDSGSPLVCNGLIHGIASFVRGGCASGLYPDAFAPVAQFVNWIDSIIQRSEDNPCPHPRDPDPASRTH

The target of a further assay is Coagulation factor X (Homo sapiens, UniProt P00742).
The target of assay [2] is Urokinase-type plasminogen activator (Homo sapiens, UniProt P00749).
For assay [3], the target named is T1, Neutrophil elastase. This is another data set of the same source.
For the next assay, the target named is Prothrombin (Homo sapiens, UniProt P00734).

As for `CC1=C(C#N)[C@@H](c2ccc(C#N)cc2S(C)(=O)=O)N(C)C(=O)N1c1cccc(C(F)(F)F)c1`, the affinity at Neutrophil elastase [1], expressed as Ki, was 0.08 nM. In addition, the IC50 (commonly the concentration that inhibits the measured activity by half) against Coagulation factor X was over 30 µM; in assay [2], over 30 µM; at Neutrophil elastase [3], 0.00014 µM; against Prothrombin it was over 30 µM.

As for `CC(=O)C1=C(C)N(c2cccc(C(F)(F)F)c2)C(=O)N[C@@H]1c1ccc(C#N)nc1` [BAY-678], at Neutrophil elastase [1], the inhibitory constant (Ki) (in general, a dissociation constant, usually derived from enzyme kinetics or from competition with a known ligand) was 15 nM. Also, the IC50 (against Coagulation factor X; in assay [2]; against Prothrombin) was over 30 µM in each case.
